We go through one substance from US20250188032A1, “NITROGEN-CONTAINING HETEROCYCLIC COMPOUNDS AND USES THEREOF” (BNH RESEARCH CO., LTD., priority 2022, published 2025).

The test system of the assay is APP/PS1 mice hippocampus (Schaffer collateral-CA1). In words: fEPSP slope and LTP in hippocampus of Alzheimer's animal model. To be noted: 15 months old. Format: in vivo. How it is done:
1 mg/ml of aducanumab or control antibody was used as a stock solution. For intravenous injection, the tail vein injection method was used. Aducanumab was administered at a dose of 5 mg/kg. Control antibody was administered using an antibody inactivated with aducanumab at a dose of 5 mg/kg. In the drug injection test, the compound was administered once a day for about 11 to 13 days. 5 mice were used for the compound administration group and the control group, respectively.
For TC or hippocampus slice preparation. 9 to 10 weeks-old male C57BL/6J mice were anesthetized with isoflurane. […]
Field recordings were made with a concentric bipolar electrode positioned in the stratum radiatum of the CA1 region using an extracellular glass pipette (3.5 MΩ) filled with aCSF. […] In all fEPSP experiments, the test stimulation were measured prior to the beginning of all the experiments (30 μA) and a test-pulse stimulation strength that evokes 50% of the maximum fEPSP was used. Baseline synaptic responses was recorded for 30 minutes, and then long-term potentiation (LTP) was induced by high-frequency stimulation (HFS; 100 Hz, 4 trains, 1 s duration, 20 s inter-train interval). […]
Excitatory postsynaptic potential (EPSP) was recorded by the whole-cell patch clamp method using a patch clamp amplifier (molecular devices, USA). […] It was then recorded for 60 minutes (LTP). […]

On to aducanumab [reference compound], for which the “Slope of fEPSP in CA1 region of Schaffer collateral circuit (synaptic efficacy)” value is “increased synaptic efficacy” and the “Synaptic long-term potentiation (LTP) of the excitatory SC pathway” value is “significantly increased”.
